Test results published in patent US20030095958A1, “Inhibitors of bace” (priority 2001, published 2003).

The chains behind the UniProt entries cited, without tags or fusion partners. Residues count along the entry.
UniProt P56817, 46-501 limits assumed: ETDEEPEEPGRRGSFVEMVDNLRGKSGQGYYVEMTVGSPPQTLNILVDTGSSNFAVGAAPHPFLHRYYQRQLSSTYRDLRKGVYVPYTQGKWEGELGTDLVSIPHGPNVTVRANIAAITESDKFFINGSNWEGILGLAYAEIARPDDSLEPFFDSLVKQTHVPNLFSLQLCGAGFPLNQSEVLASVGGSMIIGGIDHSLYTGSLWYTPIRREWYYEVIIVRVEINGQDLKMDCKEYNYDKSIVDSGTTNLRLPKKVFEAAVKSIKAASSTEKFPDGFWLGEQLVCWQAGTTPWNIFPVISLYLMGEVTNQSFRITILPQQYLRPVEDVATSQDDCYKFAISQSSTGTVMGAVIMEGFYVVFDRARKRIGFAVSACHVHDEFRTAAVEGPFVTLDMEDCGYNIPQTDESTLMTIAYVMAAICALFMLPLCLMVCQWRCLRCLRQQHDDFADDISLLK

Target: BACE (Homo sapiens, UniProt P56817)
Assay: Ki Determination for the Inhibition of BACE (FS-1 peptide fluorescence cleavage assay)
Settings: apparent Ki; 50 nM BACE, 10 μM FS-1 substrate, 0.1M sodium acetate pH 4.5
Experimental: Compounds were tested against BACE activity using the following modifications of the method described in J. Ermolieff et al. (2000) Biochemistry 39(51):16263.
All compound evaluations were performed in 0.1M sodium acetate (buffer), pH, 4.5, 10 μM substrate (FS-1 peptide as described in the reference above; this is commercially available), varying concentrations of the test compound or control (DMSO to yeild 2% vol/vol), and 50 nM BACE. The assay volume is 100 μL.
Two microliters of the test compound dissolved in DMSO are added to each well in a 96-well microtiter plate. Seventy eight microliters of BACE are mixed with buffer and added to each well then incubated at room temperature for 15 minutes. A stock solution of 50 μM FS-1 substrate was prepared by addition of an aliquot of FS-1 substrate which was dissolved in DMSO to the buffer and mixed well. The reaction is initiated by addition of 20 μL of the FS-1 mix to the remaining, preincubated assay components. The cleavage reaction of substrate to product is measured using a Molecular Devices fluorescence plate reader with the excitation and emission filter pairs of 355 nm and 495 nm, respectively. Apparent Ki values are determined by fitting the data to the integrated equation for competitive tight binding inhibition.

CC(NC(=O)C1CNCCC1c1ccc(-c2ccccc2)cc1)c1ccc2ccccc2c1 (single isomer, unassigned)
Ki: 3 to 30 µM
